These results are taken from article PMC6728052 (2019).

The target in this test is human Vascular-Endothelial Growth Factor (VEGF) (Homo sapiens, UniProt P15692-4). As to the kind of experiment: SPR. A general note: Surface plasmon resonance follows binding to a sensor surface in real time, without labels.

B1: anti-VEGF synthetic antibody G6, Fab (Fab, V domains shown)
VH: EVQLVESGGGLVQPGGSLRLSCAASGFTISDYWIHWVRQAPGKGLEWVAGITPAGGYTYYADSVKGRFTISADTSKNTAYLQMNSLRAEDTAVYYCARFVFFLPYAMDYWGQGTLVTVSS
VL: DIQMTQSPSSLSASVGDRVTITCRASQDVSTAVAWYQQKPGKAPKLLIYSASFLYSGVPSRFSGSGSGTDFTLTISSLQPEDFATYYCQQSYTTPPTFGQGTKVEIK
Turning to B1, the Kd (usually the free concentration of one partner at which half of the binding sites on the other are occupied at equilibrium, for simple one-to-one binding) worked out at 0.27 nM; the koff – broadly, a measure of how fast the partners let go of each other – amounted to 6e-05 s⁻¹; the association rate constant (kon) (as a rule, a measure of how fast the partners come together) is 230000 M⁻¹ s⁻¹.
